# Literature values as cited in patent US5744476A, “Dopamine D1 agonists for the treatment of dementia” (Interneuron Pharmaceuticals, Inc., priority 1994, dated 1998).
# How the values were obtained:
# cortical ACh release = conditions: in vivo; cited from earlier work
# [1] = system: choice accuracy deficits (CADS) due to scopolamine; conditions: in vivo; cited from earlier work
smiles,measurement,setting,value
CCCN1CCC[C@@H]2Cc3n[nH]cc3C[C@H]21 [quinpirole],cortical ACh release,cortical ACh release,no effect
same,choice accuracy deficits due to scopolamine,[1],"but not quinpirole, alleviated choice accuracy deficits (CADS) due to scopolamine"
